Bounds are passed on as bounds.

Amino acid sequences for entries named in this document (tags omitted). A change or cut given only in a name is not applied to a line headed by its entry.
UniProt P50391: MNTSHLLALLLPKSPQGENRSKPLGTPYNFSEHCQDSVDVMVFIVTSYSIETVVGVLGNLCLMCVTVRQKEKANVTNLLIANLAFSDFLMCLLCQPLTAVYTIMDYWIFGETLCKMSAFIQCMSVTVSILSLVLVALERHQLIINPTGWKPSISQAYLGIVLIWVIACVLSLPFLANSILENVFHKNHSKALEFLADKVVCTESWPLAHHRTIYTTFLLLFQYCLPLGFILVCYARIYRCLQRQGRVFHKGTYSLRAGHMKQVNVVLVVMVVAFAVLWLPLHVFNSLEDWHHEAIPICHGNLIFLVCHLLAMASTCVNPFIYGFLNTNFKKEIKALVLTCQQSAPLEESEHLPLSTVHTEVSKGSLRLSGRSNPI
UniProt P49146, whole entry: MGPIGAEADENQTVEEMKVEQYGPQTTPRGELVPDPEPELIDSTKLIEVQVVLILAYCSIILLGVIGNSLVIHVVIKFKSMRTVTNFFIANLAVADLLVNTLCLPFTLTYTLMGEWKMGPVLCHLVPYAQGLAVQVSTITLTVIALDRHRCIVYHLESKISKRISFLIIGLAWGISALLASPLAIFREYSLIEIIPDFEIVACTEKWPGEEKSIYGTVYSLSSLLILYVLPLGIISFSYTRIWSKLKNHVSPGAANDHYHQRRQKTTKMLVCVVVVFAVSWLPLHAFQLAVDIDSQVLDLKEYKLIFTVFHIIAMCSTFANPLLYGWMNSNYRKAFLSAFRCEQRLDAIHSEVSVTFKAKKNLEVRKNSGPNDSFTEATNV
UniProt P25929, whole entry: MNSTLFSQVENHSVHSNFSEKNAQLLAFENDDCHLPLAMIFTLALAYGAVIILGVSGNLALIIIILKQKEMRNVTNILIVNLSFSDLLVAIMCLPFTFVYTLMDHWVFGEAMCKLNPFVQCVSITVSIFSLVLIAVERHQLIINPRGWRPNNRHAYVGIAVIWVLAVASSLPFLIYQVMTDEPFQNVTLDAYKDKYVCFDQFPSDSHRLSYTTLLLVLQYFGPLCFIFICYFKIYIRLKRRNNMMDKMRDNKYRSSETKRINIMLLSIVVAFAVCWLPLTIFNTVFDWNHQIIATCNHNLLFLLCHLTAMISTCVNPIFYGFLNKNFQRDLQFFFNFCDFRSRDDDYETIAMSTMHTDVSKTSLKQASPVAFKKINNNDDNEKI

We go through 22 substances from patent US7410949B2, “Neuropeptide-2 receptor (Y-2R) agonists and uses thereof” (Hoffmann-La Roche Inc., priority 2005, dated 2008).

Common to all, as to assay type: cell-based
The target of test [1] is Y4R (Homo sapiens, UniProt P50391). Nature of the test: FLIPR assay, Y4R. To be noted: read-out: Y4R EC50(nM) FLIPR. The protocol:
(§1) Loading Buffer (Calcium-3 Assay Kit, Molecular Devices) was prepared by dissolving the contents of one vial (Express Kit) into 1000 ml Hank's Balanced Salt Solution containing 20 mM HEPES and 5 mM probenecid.
(§2) During the incubation, test compounds were prepared at 3.5× the desired concentration in HBSS (20 mM HEPES)/0.05% BSA/1% DMSO and transferred to a 384 well plate for use on FLIPR.
(§3) After incubation, both the cell and compound plates were brought to the FLIPR and 20 μL of the diluted compounds were transferred to the cell plates by the FLIPR. During the assay, fluorescence readings were taken simultaneously from all 384 wells of the cell plate every 1.5 seconds. Five readings were taken to establish a stable baseline, and then 20 μL of sample was rapidly (30 μL/sec) and simultaneously added to each well of the cell plate. The fluorescence was continuously monitored before, during and after sample addition for a total elapsed time of 100 seconds. Responses (increase in peak fluorescence) in each well following addition was determined. The initial fluorescence reading from each well, prior to ligand stimulation, was used as a zero baseline value for the data from that well. The responses are expressed as % of maximal response of the positive control.

For test [2], the target named is T1, hNPY2R (Homo sapiens, UniProt P49146). Briefly: cAMP Agonist Assay in HEK293/hNPY2R cells. To be noted: read-out: Y2R IC50(nM) cAMP, Forskolin 5 μM. More on the design: expressed in transfected cells; host or cells: HEK293/hNPY2R (grown under G418 selection). The protocol: The flask was gently tapped and the cell suspension was pooled. […] The suspension was pooled and counted.
The plates were incubated at 37° C. overnight.
The media and reagents were allowed to come to room temperature.
The cell medium was tapped off with a gentle inversion of the cell plate on a paper towel. 50 μL of stimulation medium was placed per well (each concentration done in four replicates). The plates were incubated at room temperature for 30 min, and the cells were checked under a microscope for toxicity.
20 μL of the lysate was transferred from stimulation plates into the pre-coated antibody plates (384-well) from the Tropix kit. […] The plates were incubated at room temperature while shaking for 1 hour. […] The plates were tapped to dry. […] Signal for 1 sec/well in a Luminometer. (VICTOR-V) was measured.

For test [3], the target named is T1, hNPY2R. Briefly: CaFlux Assay (FLIPR), Y2R. Set-up: expressed in transfected cells; host or cells: HEK-293 cells stably expressing the G protein chimera Gaqi9. To be noted: read-out: Y2R EC50(nM) FLIPR; Hek-293 cells with Gaqi9 and human NPY2 receptor. The protocol: Hek-293 cells were stably transfected with the G protein chimera Gaqi9 and the hygromycin-B resistance gene were further transfected with the human NPY2 receptor and G418 antibiotic selection. Following selection in both hygromycin-B and G418, individual clones were assayed for their response to PYY. The transfected cells were cultured in DMEM medium supplemented with 10% fetal bovine serum, 50 μg/ml hygromycin-B 2 mM glutamine, 100 U/ml penicillin, 100 μg/ml streptomycin and 250 μg/ml G418. Cells are harvested with trypsin-EDTA and counted using ViaCount reagent. The cell suspension volume is adjusted to 4.8×10^5 cells/ml with complete growth media. Aliquots of 25 μL are dispensed into 384 well Poly-D Lysine coated black/clear microplates (Falcon) and the microplates were placed in a 37° C. CO2 incubator overnight.
as §1, §2, §3

In test [4] the target is Y1R (Homo sapiens, UniProt P25929). Briefly: FLIPR assay, Y1R. To be noted: read-out: Y1R EC50(nM) FLIPR. The protocol: as §1, §2, §3

A word on the EC50: it is the concentration needed to bring the measured effect to its halfway point. For orientation: IC50 means the point on the concentration scale where inhibition reaches its midpoint. On to “Ac-Ile-Nle-Pqa-Arg-His-Tyr-Leu-Asn-Leu-Val-Thr-Arg-Gln-Arg-Tyr-NH2 [Example 44]”, for which the EC50 is over 5000 nM in test [1], 6.1 nM in test [3] and 760 nM in test [4]. In addition, the IC50 in test [2] was 0.338 nM.
“H-Ile-(D)Lys-Pqa-Arg-His-Tyr-Leu-Asn-Leu-Val-Thr-Arg-Gln-Arg-Tyr-NH2 [Example 29]”: the figures for the EC50 in test [1], in test [3] and in test [4] were over 5000 nM, 0.43 nM and over 5000 nM, respectively. Also, the half-maximal inhibitory concentration (IC50) in test [2] stood at 0.078 nM.
Consider “H-Ile-Lys-Pqa-Arg-His-Tyr-Leu-Asn-Leu-Val-Thr-(D)Arg-Gln-Arg-Tyr-NH2 [Example 21]”, for which the EC50 in test [1] was over 5000 nM; in test [3], 324 nM; in test [4], over 5000 nM. Besides, the half-inhibitory concentration (IC50) in test [2] is 65 nM.
On to “H-Ile-Lys-Pqa-Arg-His-Tyr-Leu-Asn-(NMe)Leu-Val-Thr-Arg-Gln-Arg-Tyr-NH2 [Example 36]”, for which the EC50 in test [1] is over 5000 nM; in test [3], 103 nM; in test [4], over 5000 nM. Further, the IC50 in test [2] worked out at 12 nM.
Consider “H-Ile-Lys-Pqa-Arg-His-Tyr-Leu-Asn-Leu-Val-Thr-Arg-Gln-Arg-(NMe)Tyr-NH2 [Example 31]”, for which the 50% effective concentration (EC50) in test [1] is over 5000 nM; in test [3] it was 11.8 nM; in test [4], over 5000 nM. Also, the IC50 in test [2] worked out at 2.6 nM.
In the case of “Ac-Ile-Nle-Pqa-Arg-His-Tyr-Leu-Asn-Leu-Val-Thr-Arg-Gln-Arg-(D)Tyr-NH2 [Example 48]”, the EC50 was over 5000 nM in test [1] and 107 nM in test [3]. Moreover, the half-inhibitory concentration (IC50) in test [2] was 2.2 nM.
With “H-Ile-Lys-Pqa-Arg-His-Tyr-Leu-Asn-Leu-(D)Val-Thr-Arg-Gln-Arg-Tyr-NH2 [Example 22]”, the figures for the EC50 in test [1], in test [3] and in test [4] were over 5000 nM, 322 nM and over 5000 nM, respectively. For the same substance, the IC50 in test [2] is 21 nM.
Regarding “H-Ile-Lys-Pqa-Arg-His-(NMe)Tyr-Leu-Asn-Leu-Val-Thr-Arg-Gln-Arg-Tyr-NH2 [Example 38]”, the results for the EC50 in test [1], in test [3] and in test [4] were over 5000 nM, 1.2 nM and over 5000 nM, respectively. Besides, the half-maximal inhibitory concentration (IC50) in test [2] came out at 11.7 nM.
Turning to “H-Ile-Lys-Pqa-Arg-His-Tyr-Leu-(D))Asn-Leu-Val-Thr-Arg-Gln-Arg-Tyr-NH2 [Example 24]”, the EC50 in test [1] is over 5000 nM; in test [3] it was 48 nM; in test [4] it was 3800 nM. In addition, the IC50 in test [2] was determined as 0.92 nM.
For the substance “Ac-Ile-Nle-Pqa-(3,4,5 Trifluoro Phe)-His-Tyr-Leu-Asn-Leu-Val-Thr-Arg-Gln-Arg-Tyr-NH2 [Example 64]”, the EC50 was over 5000 nM in test [1], 46 nM in test [3] and over 5000 nM in test [4].
Consider “H-Ile-Lys-Pqa-Arg-His-(D)Tyr-Leu-Asn-Leu-Val-Thr-Arg-Gln-Arg-Tyr-NH2 [Example 26]”, for which the results for the EC50 in test [1] and in test [3] were over 5000 nM and 2.98 nM, respectively. Also, the IC50 in test [2] turned out to be 0.26 nM.
As for “H-(D) Ile-Lys-Pqa-Arg-His-Tyr-Leu-Asn-Leu-Val-Thr-Arg-Gln-Arg-Tyr-NH2 [Example 30]”, the EC50 in test [1] was over 5000 nM; in test [3] it was 0.22 nM; in test [4], over 5000 nM. In test [2], the IC50 was determined as 0.099 nM.
As to “H-Ile-Lys-Pqa-Arg-His-Tyr-Leu-Asn-Leu-Val-Thr-Arg-Gln-(D)Arg-Tyr-NH2 [Example 20]”, the EC50 in test [1] is over 5000 nM; in test [3], 110 nM; in test [4], over 5000 nM. The IC50 in test [2] was determined as 25 nM.
With “H-Ile-Lys-Pqa-(NMe)Arg-His-Tyr-Leu-Asn-Leu-Val-Thr-Arg-Gln-Arg-Tyr-NH2 [Example 40]”, the values for the EC50 in test [1], in test [3] and in test [4] were over 5000 nM, 4.4 nM and 1600 nM, respectively. In test [2], the IC50 came out at 0.218 nM.
For “H-Ile-Lys-Pqa-Arg-His-Tyr-Leu-Asn-(D)Leu-Val-Thr-Arg-Gln-Arg-Tyr-NH2 [Example 23]”, the EC50 is over 5000 nM in test [1], 66 nM in test [3] and over 5000 nM in test [4]. In test [2], the IC50 turned out to be 22 nM.
As to “H-Ile-Lys-Pqa-Arg-His-Tyr-Leu-Asn-Leu-(NMe)Val-Thr-Arg-Gln-Arg-Tyr-NH2 [Example 35]”, the EC50 in test [1] is over 5000 nM; in test [3], 44.4 nM; in test [4], over 5000 nM. For the same substance, in test [2], the concentration for half-maximal inhibition (IC50) was found to be 42 nM.
For “H-Ile-Lys-Pqa-Arg-His-Tyr-Leu-Asn-Leu-Val-Thr-Arg-Gln-Arg-Tyr-NH2 [Example 5]”, the EC50 in test [1] is over 5000 nM; in test [3] it was 3.2 nM. Further, the IC50 in test [2] was 0.032 nM.
Consider “Ac-Ile-Lys-Pqa-Arg-His-Tyr-Leu-Asn-Leu-Val-Thr-Arg-Gln-Arg-Tyr-NH2 [Example 6]”, for which the EC50 in test [1] was over 5000 nM; in test [3] it was 0.58 nM. Further, the IC50 in test [2] worked out at 0.026 nM.
With “H-Ile-Lys-Pqa-Arg-His-Tyr-(D)Leu-Asn-Leu-Val-Thr-Arg-Gln-Arg-Tyr-NH2 [Example 25]”, the concentration giving a half-maximal response (EC50) in test [1] was over 5000 nM; in test [3], 5.26 nM; in test [4], 3800 nM. Besides, in test [2], the IC50 turned out to be 0.37 nM.
With “H-Ala-Lys-Pqa-Arg-His-Tyr-Leu-Asn-Leu-Val-Thr-Arg-Gln-Arg-Tyr-NH2 [Example 18]”, the concentration giving a half-maximal response (EC50) in test [1] was over 5000 nM; in test [3], 0.62 nM; in test [4], over 5000 nM.
Turning to “H-Ile-Lys-Pqa-Arg-His-Tyr-Leu-Asn-Leu-Val-Thr-Arg-Gln-Arg-(D)Tyr-NH2 [Example 19]”, the EC50 in test [1] was over 5000 nM; in test [3], 3.5 nM; in test [4] it was 3300 nM. The 50% inhibitory concentration (IC50) in test [2] was determined as 1.09 nM.
On the same counts, the results for “H-Ile-Lys-Pqa-(D)Arg-His-Tyr-Leu-Asn-Leu-Val-Thr-Arg-Gln-Arg-Tyr-NH2 [Example 28]” are over 5000 nM, 5.2 nM, 1100 nM and 0.201 nM.
